Test results from patent US10988445B2 (AstraZeneca AB, priority 2015, dated 2021).

Tested on: human TH17 cells
Assay: Inhibition of IL-17 release from human TH17 cells
Type: cell-based
Conditions: isolated human TH17 cells, 4 days culture, IL-17A by HTRF; for IC50: Homo sapiens, 96 h, read-out: pIC50 IL-17 release (converted)
From the text: Inhibition of IL-17 Release from Human TH17 Cells (IL-17 Release)
This test is designed to screen compounds for their inhibitory effect on the release of IL-17 from isolated and cultured human TH17 cells.
Peripheral blood mononuclear cells (PBMC) were isolated from heparin treated human whole blood fromhealthy donors by density gradient centrifugation. TH17 cells (CD4+CXCR3-CCR6+) were enriched using a human TH17 Cell Enrichment Kit (Stemcell Technologies) according to the manufacturer's protocol. […] On day 4 supernatants were collected and IL-17A was measured using a Human IL-17 HTRF Assay kit (Cisbio Bioassays) according to the manufacturer's protocol. […] Results

| SMILES | IC50 [nM] | also measured |
| --- | --- | --- |
| CS(=O)(=O)c1ccc2c(c1)CN(C(=O)C1(C#N)CC1)C2C(=O)Nc1ccc(C(O)(C(F)(F)F)C(F)(F)F)cc1 (single isomer, unassigned) [Example 405, isomer 2, 2-[(1-Cyanocyclopropyl)carbonyl]-N-[4-(1,1,1,3,3,3-hexafluoro-2-hydroxypropan-2-yl)phenyl]-5-(methylsulfonyl)-2,3-dihydro-1H-isoindole-1-carboxamide] |  | pIC50 IL-17 release (listed as 405, isomer 2): <6.8 |
| COC1(C(=O)N2Cc3cc(S(=O)(=O)C4CC4)ccc3C2C(=O)Nc2ccc(C(O)(C(F)(F)F)C(F)(F)F)cc2)CC1 (stereo not shown) [Example 603, 5-(Cyclopropylsulfonyl)-N-[4-(1,1,1,3,3,3-hexafluoro-2-hydroxypropan-2-yl)phenyl]-2-[(1-methoxycyclopropyl)carbonyl]-2,3-dihydro-1H-isoindole-1-carboxamide] | 31.6 |  |
| CS(=O)(=O)c1ccc2c(c1)CN(C(=O)C1(C#N)CC1)C2C(=O)Nc1ccc(C(O)(C(F)(F)F)C(F)(F)F)cc1 (racemic) [Example 405, racemate, 2-[(1-Cyanocyclopropyl)carbonyl]-N-[4-(1,1,1,3,3,3-hexafluoro-2-hydroxypropan-2-yl)phenyl]-5-(methylsulfonyl)-2,3-dihydro-1H-isoindole-1-carboxamide] | 39.8 |  |
| CS(=O)(=O)c1ccc2c(c1)CN(C(=O)C1(C#N)CC1)C2C(=O)Nc1ccc(C(O)(C(F)(F)F)C(F)(F)F)cc1 (single isomer, unassigned) [Example 405, isomer 1, 2-[(1-Cyanocyclopropyl)carbonyl]-N-[4-(1,1,1,3,3,3-hexafluoro-2-hydroxypropan-2-yl)phenyl]-5-(methylsulfonyl)-2,3-dihydro-1H-isoindole-1-carboxamide] |  | pIC50 IL-17 release (listed as 405, isomer 1): 7.8 |
